In patent US7112341B1, “Pulmonary administration of dry powder formulations for treating infertility” (Nektar Therapeutics, priority 1999, dated 2006):

Experiments:
[1] = Pre-formulation evaluation: solution stability, freeze-thaw, adsorption to tubing; format: physicochemical; details: first 2 mL of 175 μg/mL solution, silicon tubing 2 m×4.6 mm i.d.
[2] = Pharmacokinetics of uFSH and hFSH variant, IV and SC, in female Fisher rats; format: in vivo; details: for CMax: female Fisher rats; for T1/2: terminal elimination half-life; for AUC0–t: time 0 to 24 h
[3] = Colorometric sialic acid assay (extent of uFSH sialylation after spray drying); format: physicochemical; details: intact sialic acid, reconstituted powder or stock
[4] = SE-HPLC of higher order uFSH aggregates before and after spray drying; format: physicochemical; details: by SE-HPLC

uFSH: FSH derived from human urine (Vitro Diagnostics, Inc.); mixture of hFSH and hFSH analogs
uFSH adsorption to the tubing [1]: 10 µg | AUC0–∞ ([2]; IV 15 μg/kg): 5373 mIU · h/mL | TMax ([2]; IV 15 μg/kg): 0.1 h | Serum concentration of immunoreactive uFSH / FSH variant ([2]; IV 15.0 μg/kg, 0.08 h, individual rats): 2435 mIU/mL and 2447 mIU/mL and 1894 mIU/mL | Serum concentration of immunoreactive uFSH / FSH variant ([2]; IV 15.0 μg/kg, 0.08 h, mean): 2258 mIU/mL | Serum concentration of immunoreactive uFSH / FSH variant ([2]; IV 15.0 μg/kg, 0.25 h, individual rats): 2992 mIU/mL and 103 mIU/mL and 1223 mIU/mL | Serum concentration of immunoreactive uFSH / FSH variant ([2]; IV 15.0 μg/kg, 0.25 h, mean): 1439 mIU/mL | Serum concentration of immunoreactive uFSH / FSH variant ([2]; IV 15.0 μg/kg, 0.5 h, individual rats): 1604 mIU/mL and 2031 mIU/mL and 1888 mIU/mL | Serum concentration of immunoreactive uFSH / FSH variant ([2]; IV 15.0 μg/kg, 0.5 h, mean): 1841 mIU/mL | Serum concentration of immunoreactive uFSH / FSH variant ([2]; IV 15.0 μg/kg, 1 h, individual rats): 856 mIU/mL and 920 mIU/mL and 645 mIU/mL | Serum concentration of immunoreactive uFSH / FSH variant ([2]; IV 15.0 μg/kg, 1 h, mean): 807 mIU/mL | Serum concentration of immunoreactive uFSH / FSH variant ([2]; IV 15.0 μg/kg, 3 h, individual rats): 477 mIU/mL and 308 mIU/mL and 351 mIU/mL | Serum concentration of immunoreactive uFSH / FSH variant ([2]; IV 15.0 μg/kg, 3 h, mean): 379 mIU/mL | Serum concentration of immunoreactive uFSH / FSH variant ([2]; IV 15.0 μg/kg, 6 h, individual rats): 224 mIU/mL and 198 mIU/mL and 200 mIU/mL | Serum concentration of immunoreactive uFSH / FSH variant ([2]; IV 15.0 μg/kg, 6 h, mean): 207 mIU/mL | Serum concentration of immunoreactive uFSH / FSH variant ([2]; IV 15.0 μg/kg, 9 h, individual rats): 78 mIU/mL and 85 mIU/mL and 109 mIU/mL | Serum concentration of immunoreactive uFSH / FSH variant ([2]; IV 15.0 μg/kg, 9 h, mean): 91 mIU/mL | Serum concentration of immunoreactive uFSH / FSH variant ([2]; IV 15.0 μg/kg, 12 h, individual rats): 84 mIU/mL and 145 mIU/mL and 131 mIU/mL | Serum concentration of immunoreactive uFSH / FSH variant ([2]; IV 15.0 μg/kg, 12 h, mean): 120 mIU/mL | Serum concentration of immunoreactive uFSH / FSH variant ([2]; IV 15.0 μg/kg, 24 h, individual rats): 38 mIU/mL and 24 mIU/mL and 23 mIU/mL | Serum concentration of immunoreactive uFSH / FSH variant ([2]; IV 15.0 μg/kg, 24 h, mean): 28 mIU/mL | CMax ([2]; IV 15 μg/kg): 2258 mIU/mL | T1/2 ([2]; IV 15 μg/kg): 6.8 h | AUC0–t ([2]; IV 15 μg/kg): 5093 mIU · h/mL | AUC0–∞ ([2]; SC 15 μg/kg): 4566 mIU · h/mL | TMax ([2]; SC 15 μg/kg): 6.0 h | Serum concentration of immunoreactive uFSH / FSH variant ([2]; SC 15.0 μg/kg, 0.08 h, individual rats): 5.5 mIU/mL and BQL (2×) | Serum concentration of immunoreactive uFSH / FSH variant ([2]; SC 15.0 μg/kg, 0.08 h, mean): 1.8 mIU/mL | Serum concentration of immunoreactive uFSH / FSH variant ([2]; SC 15.0 μg/kg, 0.25 h, individual rats): BQL and 15.8 mIU/mL and 9.3 mIU/mL | Serum concentration of immunoreactive uFSH / FSH variant ([2]; SC 15.0 μg/kg, 0.25 h, mean): 8.4 mIU/mL | Serum concentration of immunoreactive uFSH / FSH variant ([2]; SC 15.0 μg/kg, 0.5 h, individual rats): 15.4 mIU/mL and 37.2 mIU/mL and 15.2 mIU/mL | Serum concentration of immunoreactive uFSH / FSH variant ([2]; SC 15.0 μg/kg, 0.5 h, mean): 22.6 mIU/mL | Serum concentration of immunoreactive uFSH / FSH variant ([2]; SC 15.0 μg/kg, 1 h, individual rats): 37.9 mIU/mL and 23.8 mIU/mL and 34.8 mIU/mL | Serum concentration of immunoreactive uFSH / FSH variant ([2]; SC 15.0 μg/kg, 1 h, mean): 32.2 mIU/mL | Serum concentration of immunoreactive uFSH / FSH variant ([2]; SC 15.0 μg/kg, 3 h, individual rats): 95 mIU/mL and 139 mIU/mL and 170 mIU/mL | Serum concentration of immunoreactive uFSH / FSH variant ([2]; SC 15.0 μg/kg, 3 h, mean): 135 mIU/mL | Serum concentration of immunoreactive uFSH / FSH variant ([2]; SC 15.0 μg/kg, 6 h, individual rats): 138 mIU/mL and 168.1 mIU/mL and 150.4 mIU/mL | Serum concentration of immunoreactive uFSH / FSH variant ([2]; SC 15.0 μg/kg, 6 h, mean): 152 mIU/mL | Serum concentration of immunoreactive uFSH / FSH variant ([2]; SC 15.0 μg/kg, 9 h, individual rats): 143 mIU/mL and 165 mIU/mL and 117 mIU/mL | Serum concentration of immunoreactive uFSH / FSH variant ([2]; SC 15.0 μg/kg, 9 h, mean): 142 mIU/mL | Serum concentration of immunoreactive uFSH / FSH variant ([2]; SC 15.0 μg/kg, 12 h, individual rats): 126 mIU/mL and 144 mIU/mL and 153 mIU/mL | Serum concentration of immunoreactive uFSH / FSH variant ([2]; SC 15.0 μg/kg, 12 h, mean): 141 mIU/mL | Serum concentration of immunoreactive uFSH / FSH variant ([2]; SC 15.0 μg/kg, 24 h, individual rats): 75.4 mIU/mL and 70.1 mIU/mL and 74.5 mIU/mL | Serum concentration of immunoreactive uFSH / FSH variant ([2]; SC 15.0 μg/kg, 24 h, mean): 73.3 mIU/mL | CMax ([2]; SC 15 μg/kg): 152 mIU/mL | T1/2 ([2]; SC 15 μg/kg): 16.4 h | AUC0–t ([2]; SC 15 μg/kg): 2767 mIU · h/mL | Sialic Acid [3]: 297 ± 15 nmol/mg protein | higher order aggregates in bulk drug substance [4]: < 0.8%

Where “and” joins values, the source holds several entries; their conditions need not be identical. Equal values may be shown once.
